Target: Muscarinic acetylcholine receptor M3 (Homo sapiens, UniProt P20309)
Test: M3 Receptor Affinity Test
Procedure: The experiment was performed by a radioisotope affinity assay. The M3 receptor membrane protein was prepared at 10 μg/mL by Biology Department of WuXi AppTec, and compounds were serially diluted in a 2.5-fold gradient in DMSO to obtain 10 concentrations. Radioisotope 3H-NMS was prepared at 0.2 nM in an assay buffer (10 mM HEPES, 1 mM MgCl2, p

**Q.** How did the IC50 turn out when `O=C(OC1CCN(CCCn2nnc3cc(CNC[C@H](O)c4ccc(O)c5[nH]c(=O)ccc45)c4c(c32)CCC4)CC1)C(O)(c1cccs1)c1ccc(Br)s1` (some centres not stated) was run?
**A.** The IC50 was 4.16 nM.

**Q.** `O=C(OC1CCN(CCCn2nnc3cc(CNC[C@H](O)c4ccc(O)c5[nH]c(=O)ccc45)c4c(c32)CCC4)CC1)[C@](O)(c1cccs1)c1ccc(Br)s1` was tested. Which IC50 did it give?
**A.** The IC50 was 2.77 nM.

Reference: BindingDB's records for US20230322745 (Chia Tai Tianqing Pharmaceutical Group, 2023)
